ERp5 block – inhibitors of human ERp5. Q15084. ERp5 insulin aggregation, absorbance 650 nm, 90 min. inhibition, % at 9.99 µM. 0.05% of 350,000 active;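 active = mean replicate inhibition above about 25%, with every replicate also reaching it, limit read from the data, passing the limit was not always enough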
Yeast UUG start – modulators of start codon recognition fidelity in yeast; S. cerevisiae UUG-firefly luciferase reporter, luminescence/redox ratio; AID 602363; 350,000 tested, 0.13% active; activity score, % at 18.7 µM;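 active = replicate mean at a twofold rise or more, about +100% in these data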;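 also: firefly luciferase made from a UUG start codon reports start codon fidelity; reporter light over untreated wells divided by growth signal over untreated wells; some hits fall short of that in this replicate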
PDI turbidity – blocks human protein disulfide isomerase activity | P07237 | PDI insulin aggregation turbidity, A650, 90 min | inhibition, % at 10 µM | 0.052% of 350,000 active | AID 588391;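 active = mean inhibition across replicates of 30% or more, whatever share of single replicates reach that level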
NR1D1 modulator – Rev-erb alpha (human) modulation; Rev-erbα–FITC-DNA binding, fluorescence polarization, 90 min; P20393; AID 1259318; activity, % at 10 µM; 0.79% of 370,000 active;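 active = activity above about 14%, limit read from the data; passing the limit was not always enough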;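 also: 0% = DMSO wells with 35 nM protein and 100% = DMSO wells with 750 nM protein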
SMARCA2 activ – increases SMARCA2 function in MMTV reporter cells. 1% of 370,000 active. activation, % at 9.1 µM. MG213 cells, MMTV-luciferase reporter, dexamethasone, overnight. AID 652017; in the data active = activation above about 7.8%;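 also: 0% = vehicle wells and 100% = reference activator wells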
GSIS activator – primary screen for activators of insulin secretion dependent on glucose, INS-1E cells, GLuc reporter luminescence; INS-1E GLuc reporter insulin secretion, 2-3 h; activation, % at 16.6 µM; 0.61% of 370,000 active;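 active = lowest replicate activation of at least 40%, so every replicate reaches that level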;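 also: 0% = median of neutral control wells and 100% = median of IBMX positive control wells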
SMARCA2 act conf – SMARCA2 activation, confirmation screen; 30% of 3,500 active; shares compounds with SMARCA2 activ; MG213 cells, MMTV-luciferase with dexamethasone, luminescence, overnight; MG213 cells expressing E1A, Rb sequestered; DMSO wells 0%, reference activator 100%; activation, % at 9.1 µM;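 active = activation above its plate's cutoff, the mean activation of tested wells plus 3 SD, cut at about 7.9% in these data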
VP16 Luc act – activates GAL4-VP16 luciferase, flagging SMARCA2 activator hits. 41% of 3,500 active. AID 686939. HEK293 GAL4-VP16 pG5luc reporter, luciferase luminescence; scaled: DMSO wells 0%, SAHA wells 100%. shares compounds with SMARCA2 activ. activation, % at 9.1 µM;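 active = activation above the solvent-only control well mean plus 3 SD, averaged across control plates, cut at about 5.2% in these data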
* hit, by the source's call; x = no result given. Most compounds without a hit are left out; they make up all but 2.1% or so of the library.

#1 COc1cc(C2N=C(c3ccccc3)NO2)cc(Br)c1O (stereo not drawn)
#2 C[C@H](CO)N1C[C@H](C)[C@@H](CN(C)C(=O)NC2CCCCC2)Oc2ccc(NC(=O)Nc3ccc4c(c3)OCO4)cc2C1=O
#3 Cc1ccc(NC(=O)CSc2nc3ccccc3c(=O)n2CCCN2CCCCC2)cc1C
#4 Cc1cc(NC(=O)CSc2nc3c(sc4ccccc43)c(=O)n2CCc2ccccc2)n[nH]1
#5 CC(=O)c1cccc(NC(=O)CSc2nc3ccccc3c(=O)n2CCCN2CCOCC2)c1
#6 Cc1cc(NC(=O)CSc2nc3c(sc4ccccc43)c(=O)n2CCCN2CCOCC2)n[nH]1

Assay by compound	1	2	3	4	5	6
ERp5 block	x	-1.3	x	x	4.8	5.8
Yeast UUG start	-2.0	-3.2	-1.0	-20.4	-11.6	-5.9
PDI turbidity	3.0	x	8.3	-6.7	-17.8	6.9
NR1D1 modulator	-4.9	x	-0.1	7.8	0.9	-4.2
SMARCA2 activ	3.8	x	12.7*	-5.2	-2.2	20.4*
GSIS activator	x	2.7	x	x	1.7	18.5
SMARCA2 act conf	x	x	6.0	x	x	35.5*
VP16 Luc act	x	x	2.6	x	x	-0.8

#7 COc1ccc(C#Cc2ccc3c(c2)O[C@@H](CN(C)C(C)=O)[C@@H](C)CN([C@H](C)CO)S3(=O)=O)cc1
#8 Oc1ccccc1-c1nnc(COc2ccc(Cl)cc2Cl)o1
#9 CO[C@@H]1CN(C)C(=O)c2ccc(NC(=O)C3CC3)cc2OC[C@@H](C)N(C(=O)CN2CCOCC2)C[C@@H]1C
#10 CC1=CC(=O)C(Sc2ccc(C)cc2)=CC1=O
#11 Cc1ccc(SC2=C(Sc3ccc(C)cc3)C(=O)c3ccccc3C2=O)cc1
#12 O=C(Nc1nc2c(F)cc(F)cc2s1)c1ccccn1

Assay by compound	7	8	9	10	11	12
ERp5 block	2.0	-4.8	-2.4	-8.0	-1.1	0.4
Yeast UUG start	18.7	-18.9	-2.1	-21.3	-8.6	-39.6
PDI turbidity	x	x	x	-1.1	-7.1	5.1
NR1D1 modulator	x	6.7	x	7.2	9.4	5.9
SMARCA2 activ	x	9.3*	x	8.1*	4.9	11.4*
GSIS activator	-13.7	4.1	6.7	x	-2.6	-2.4
SMARCA2 act conf	x	5.2	x	-3.8	x	-13.7
VP16 Luc act	x	12.9*	x	6.2*	x	19.6*

#13 C/C=C/c1ccc([C@H]2[C@H](CO)N(S(=O)(=O)CC)C23CN(C(=O)CC)C3)cc1
#14 CC1=C/C(=N\NC(=S)Nc2cccnc2)CC(C)(C)C1
#15 CC1(C)C2CC=C(/C=N/NC(=S)Nc3cccnc3)C1C2 (stereo not drawn)
#16 CCCNC(=O)N1CC2(CN(CC3CC3)C2)c2c(n(C)c3cc(OC)ccc23)[C@H]1CO
#17 O=C(O)c1cc(-c2ccc3ccccc3n2)nc2ccccc12
#18 O=C(COc1ccc(Br)cc1)NCCO

Assay by compound	13	14	15	16	17	18
ERp5 block	-1.7	1.6	-2.3	-3.2	-3.1	6.7
Yeast UUG start	x	-32.5	x	x	-33.8	x
PDI turbidity	x	-1.6	-1.1	x	-6.8	1.4
NR1D1 modulator	x	-1.5	0.2	x	3.7	2.5
SMARCA2 activ	x	8.1*	-0.8	x	13.2*	-3.8
GSIS activator	16.9	7.4	-3.6	-4.2	-10.3	10.9
SMARCA2 act conf	x	-12.2	x	x	3.2	x
VP16 Luc act	x	21.1*	x	x	7.7*	x

Records above that bear a hit mark in SMARCA2 act conf:
#6 Cc1cc(NC(=O)CSc2nc3c(sc4ccccc43)c(=O)n2CCCN2CCOCC2)n[nH]1

Assay by compound	6
ERp5 block	5.8
Yeast UUG start	-5.9
PDI turbidity	6.9
NR1D1 modulator	-4.2
SMARCA2 activ	20.4*
GSIS activator	18.5
SMARCA2 act conf	35.5*
VP16 Luc act	-0.8

The results go on.
#19 CCc1ccc(OCC(=O)NC(C)(C)C)cc1
#20 Cc1ccc(OCC(=O)NCCO)cc1C
#21 CCNC(=O)COc1ccc(CC)cc1
#22 C[C@@H]1CCCCO[C@H](CN(C)C(=O)CCC(F)(F)F)[C@@H](C)CN([C@H](C)CO)C(=O)c2cc(NC(=O)Nc3ccccc3)ccc2O1
#23 CC(C)(C)c1ccc(-c2nnc(SCC(=O)NC3CC3)o2)cc1
#24 Cc1ccccc1C(=O)NNC1CC(=O)N(c2ccc3c(c2)OCCO3)C1=O (stereo not drawn)

Assay by compound	19	20	21	22	23	24
ERp5 block	x	-5.0	-1.2	4.1	6.7	x
Yeast UUG start	x	-6.2	x	2.9	2.6	x
PDI turbidity	1.7	-7.9	-0.2	x	-8.9	-4.2
NR1D1 modulator	-2.4	-5.4	5.0	x	3.2	-3.2
SMARCA2 activ	-1.5	10.2*	8.1*	x	9.0*	-0.6
GSIS activator	9.6	-12.1	12.6	15.4	3.1	-0.1
SMARCA2 act conf	x	0.6	8.0*	x	0.1	x
VP16 Luc act	x	5.0	2.1	x	5.5*	x

#25 O=C(NNC1CC(=O)N(c2ccc3c(c2)OCCO3)C1=O)c1ccccc1 (stereo not drawn)
#26 O=[N+]([O-])c1ccc(N=NN(CCO)CCO)cc1
#27 O=[N+]([O-])c1ccc(N=Nc2ncc[nH]2)cc1
#28 Cc1ccc(S(=O)(=O)Nc2cccc3c2O[C@@H](CN(C)C(=O)NC(C)C)[C@@H](C)CN([C@H](C)CO)C3=O)cc1
#29 CCCCN(CC)CCNC(=O)c1cc2c(=O)n(CC)c3ccccc3c2s1
#30 CCCCN(CC)CCCNC(=O)c1cc2c(=O)n(CC)c3ccccc3c2s1

Assay by compound	25	26	27	28	29	30
ERp5 block	x	0.0	2.0	2.1	-2.0	2.5
Yeast UUG start	-18.0	x	-6.4	11.2	5.6	27.9
PDI turbidity	5.9	13.8	-7.0	x	-4.7	10.4
NR1D1 modulator	1.3	-1.6	3.6	x	0.8	-1.8
SMARCA2 activ	8.6*	-3.3	8.0*	x	4.1	13.9*
GSIS activator	1.6	-14.0	-5.0	-8.0	-0.9	0.7
SMARCA2 act conf	-1.9	x	-14.3	x	x	3.4
VP16 Luc act	0.7	x	6.9*	x	x	8.1*

#31 CCN(CC)CCNC(=O)c1cc2c(=O)n(C)c3ccccc3c2s1
#32 Cc1nc(COC(=O)c2c(C)nn(-c3ccccc3)c2C)cs1
#33 CC(C)OCCCNC(=O)C1CCC(CNS(=O)(=O)c2ccc(Cl)cc2)CC1 (stereo not drawn)
#34 COc1ccc(CCNc2ncccc2C#N)cc1OC
#35 CCC(N=c1cc(-c2ccc(OC)cc2)oc2ccc(C)cc12)C(=O)O (stereo not drawn)
#36 COc1ccc2c(c1)oc(=O)c1cc(OC)ccc12

Assay by compound	31	32	33	34	35	36
ERp5 block	2.0	x	x	4.7	x	4.5
Yeast UUG start	-5.5	-8.2	x	-21.0	x	5.7
PDI turbidity	15.5	0.5	4.6	-12.7	-3.6	x
NR1D1 modulator	-1.2	-3.9	1.5	1.7	-3.0	-11.7
SMARCA2 activ	14.0*	9.1*	14.2*	10.0*	16.8*	9.1*
GSIS activator	22.4	x	-2.8	21.5	6.1	15.5
SMARCA2 act conf	13.5*	10.4*	-3.6	6.6	10.6*	19.8*
VP16 Luc act	2.1	3.2	1.1	9.6*	8.8*	6.5*

Copied from the list:
Result of `COc1ccc2c(c1)oc(=O)c1cc(OC)ccc12` in SMARCA2 activ: 9.1*
Result of `CCCCN(CC)CCCNC(=O)c1cc2c(=O)n(CC)c3ccccc3c2s1` in GSIS activator: 0.7

(next part)
#37 COC(=O)C(C)Oc1ccc2cc(-c3ccccc3)c(=O)oc2c1 (stereo not drawn)
#38 COc1ccc2cc(-c3ccccc3)c(=O)oc2c1
#39 COc1ccc(-c2cc(=O)c3cc(OC)ccc3o2)cc1
#40 CCC(=O)N(CC)C[C@@H]1[C@@H](c2ccc(-c3cccnc3)cc2)[C@H](CO)N1C(C)=O
#41 C[C@H]1CN([C@@H](C)CO)C(=O)Cc2cc(N(C)C)ccc2O[C@@H]1CN(C)S(C)(=O)=O
#42 C[C@@H]1CN(C)C(=O)c2cccnc2O[C@H]1CN(C)C
#43 O=C(C[C@H]1CC[C@H]2[C@@H](COC[C@@H](O)CN2Cc2cccc(Cl)c2)O1)NCC1CCCCC1
#44 O=C(CNC(=O)c1ccccc1)c1ccccc1

Assay by compound	37	38	39	40	41	42	43	44
ERp5 block	-3.3	4.0	9.9	4.3	1.9	x	x	-11.1
Yeast UUG start	-1.1	-23.5	-17.9	-14.2	-3.7	x	x	-52.5
PDI turbidity	-1.2	0.2	x	x	x	x	x	-3.0
NR1D1 modulator	-4.9	-6.2	7.2	x	x	x	x	-3.5
SMARCA2 activ	-1.1	9.7*	9.8*	x	x	x	x	7.1
GSIS activator	4.5	-4.3	5.1	9.9	22.1	6.8	3.6	0.6
SMARCA2 act conf	x	3.2	5.6	x	x	x	x	x
VP16 Luc act	x	9.2*	7.0*	x	x	x	x	x

Entries by screen from the entries so far.
PDI turbidity for entries 28–31: x, -4.7, 10.4, 15.5

Screening data as filed in PubChem.
